The values that follow are results of earlier work, collected in patent US20140023701A1, “Method and Composition for Ameliorating the Effects tor a Subject Exposed to Radiation or Other Sources of Oxidative Stress” (priority 2011, published 2014).

This data set concerns Human. Conditions: no observed adverse event level, most sensitive subgroup.

For the compound `CC1=C(/C=C/C(C)=C/C=C/C(C)=C/C=C/C=C(C)/C=C/C=C(C)/C=C/C2=C(C)CCCC2(C)C)C(C)(C)CCC1` [Beta-carotene], the “Human NOAEL” value is on record as 25 mg.
